Usually Kd stands for the constant that tells how readily two partners part at equilibrium. High values mean weaker binding, low ones tighter binding.

Assay [1] has as its target laminin (LM) (UniProt P02469).
Assay [2] has as its target laminin (LM) (UniProt P02469). Nature of the assay: ELISA; wells coated with 1 μg LM; increasing concentrations of His-tagged r37LRP in PBS, 1 mg/ml BSA, 1 h at 37°C; detected with Penta-His HRP; BSA-coated wells subtracted; one-site binding hyperbola. Background: An ELISA detects its analyte on a solid surface through an enzyme-linked reagent.

In turn, “67 kDa laminin receptor (67LR) on the surface of LR-293 cells (HEK-293 stably transfected with human 37LRP cDNA with C-terminal T7 tag and poly-histidine stretch) (from UniProt P08865 1-295)” registered an adhesion of LR-293 cells (67LR overexpressing) for 1 hour to wells coated with increasing concentrations of LM, without inhibitor; Kd from the binding curve in the assay with laminin (LM) [1] of 14.5 nM.

In the assay with laminin (LM) [2], “human recombinant soluble 37LRP (r37LRP), His-tagged (from UniProt P08865 1-295) (natural protein)” gave a Kd of 1900 nM.

Values taken from article PMC4627239, “Discovery of new small molecules inhibiting 67 kDa laminin receptor interaction with laminin and cancer cell invasion” (Oncotarget, 2015).
